From US6610675B1, “Inactive metabolite approach to soft drug design” (priority 1980, dated 2003)

Tests used:
Type in all cases: in vivo, rat
thymus weight in rats = assay: Thymus inhibition testing (subcutaneous administration)
Description: Several further studies were undertaken to determine the effects of selected compounds of the invention on thymi weights in rats when the drugs were systemically administered. In each of these studies, male Sprague-Dawley rats were used. […] On the fifth day (48 hours following the last treatment), the animals were sacrificed and the thymi weights were recorded. […] It is evident that the higher the inhibition of thymus activity at a given dose, the more toxic the compound is.

[1] = system: ear swelling induced by croton oil; assay: Ear edema test; details: 1 mg/kg topical, 48 hours
Description: The test animals were Sprague/Dawley rats weighing approximately 150 grams each. In treatment groups, selected amounts of the test compound were dissolved in acetone containing 5% croton oil and 50 microliters of the solution were applied to the inner surface of the right ear of the rats. A control group was identically treated with vehicle only, i.e. 5% croton oil in acetone. Six hours after croton oil challenge, a constant region of each ear was removed by dissection under anesthesia. Then, 48 hours after steroid treatment, the animals were sacrificed and the thymi and adrenals were removed and weighed. The test results showing the inhibitory effect of topically applied steroids on the ear swelling induced by croton oil are summarized in Table II below.

[2] = system: granulation tissue formation caused by implantation of cotton pellets; assay: Granuloma formation test (local cotton pellet granuloma assay); details: for Relative organ weight Adrenals / Relative organ weight Adrenals (Decrease %) / Relative organ weight Thymus / Relative organ weight Thymus (Decrease %): Table III
Description: The test compound was dissolved in acetone and aliquots of varying concentrations were injected into cotton pellets. The pellets were dried and then one pellet was implanted beneath the skin of each test rat. Six days later, the animals were sacrificed and the granulation tissue (granuloma) which formed in and around the implanted pellet was removed, dried and weighed. In addition, the thymi and adrenals were removed and weighed.

[3] = Table X, betamethasone 17-valerate = 1

## CCCC(=O)O[C@]1(C(=O)CO)CC[C@H]2[C@@H]3CCC4=CC(=O)CC[C@]4(C)[C@H]3[C@@H](O)C[C@@]21C [Hydrocortisone 17-butyrate, reference compound]
Thymus weight in rats; [3]
  Relative Potency (TED40): 0.23
  Relative Potency (TED50): 0.29
Thymus weight in rats; Table XII, hydrocortisone 17-butyrate = 1
  Relative Potency (TED40): 1
[1]
  Relative organ weight Adrenals: 20.2 ± 0.7 mg/100 g body wt.
  Relative organ weight Thymus: 303 ± 21 mg/100 g body wt.
[2]; 1 mg/pellet
  Relative organ weight Adrenals: 27.1 ± 1.4 mg/100 g body wt.
  Relative organ weight Adrenals (Decrease %): (−14.3) %
  Relative organ weight Thymus: 73 ± 5 mg/100 g body wt.
  Relative organ weight Thymus (Decrease %): (77.6) %
[2]; 3 mg/pellet
  Relative organ weight Adrenals: 16.5 ± 1.2 mg/100 g body wt.
  Relative organ weight Adrenals (Decrease %): (30.4) %
  Relative organ weight Thymus: 47 ± 3 mg/100 g body wt.
  Relative organ weight Thymus (Decrease %): (85.6) %
[2]; 10 mg/pellet
  Relative organ weight Adrenals: 16.8 ± 1.2 mg/100 g body wt.
  Relative organ weight Adrenals (Decrease %): (29.1) %
  Relative organ weight Thymus: 32 ± 3 mg/100 g body wt.
  Relative organ weight Thymus (Decrease %): (90.2) %
[2]; chloromethyl 11β-hydroxy-17α-isopropoxycarbonyloxyandrost-4-en-3-one-17β-carboxylate = 1
  Relative potency (ED60): 0.7
